Experimental data reported in ChEMBL document CHEMBL5523761 (J Med Chem, 2024).

The chains behind the UniProt entries cited, without tags or fusion partners.
UniProt P08913, whole entry: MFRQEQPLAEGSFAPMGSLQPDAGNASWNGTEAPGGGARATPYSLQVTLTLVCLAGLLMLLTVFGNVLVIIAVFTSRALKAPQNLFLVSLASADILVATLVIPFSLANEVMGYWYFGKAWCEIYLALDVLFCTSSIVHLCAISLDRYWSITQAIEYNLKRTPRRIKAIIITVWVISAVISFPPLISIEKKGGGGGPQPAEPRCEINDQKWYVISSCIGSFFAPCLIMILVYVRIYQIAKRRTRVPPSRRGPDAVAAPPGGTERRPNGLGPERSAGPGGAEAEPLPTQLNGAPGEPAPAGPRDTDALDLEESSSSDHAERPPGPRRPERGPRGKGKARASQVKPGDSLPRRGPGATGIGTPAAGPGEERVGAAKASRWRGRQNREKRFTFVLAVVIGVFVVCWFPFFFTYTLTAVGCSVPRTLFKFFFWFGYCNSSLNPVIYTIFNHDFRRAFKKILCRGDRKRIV
UniProt P34972, whole entry: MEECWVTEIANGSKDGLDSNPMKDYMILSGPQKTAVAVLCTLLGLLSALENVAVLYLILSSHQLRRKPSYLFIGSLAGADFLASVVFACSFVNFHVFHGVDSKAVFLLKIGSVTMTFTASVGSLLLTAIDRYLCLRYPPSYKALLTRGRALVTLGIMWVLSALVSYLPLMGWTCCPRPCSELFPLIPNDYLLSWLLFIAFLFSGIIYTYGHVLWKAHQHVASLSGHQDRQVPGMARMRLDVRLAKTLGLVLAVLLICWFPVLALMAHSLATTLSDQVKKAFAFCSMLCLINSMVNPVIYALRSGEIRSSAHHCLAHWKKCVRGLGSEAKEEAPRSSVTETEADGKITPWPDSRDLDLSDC

What was measured:
[1] = target: Alpha-2A adrenergic receptor (Homo sapiens, UniProt P08913)
Cannabinoid receptor 2 [2] = target: T1, Cannabinoid receptor 2 (Homo sapiens, UniProt P34972)
Cannabinoid receptor 2 [3] = target: T1, Cannabinoid receptor 2; remark: listed apart in the source

Row | Structure (SMILES) | Ki [1] [nM] | Ki (Cannabinoid receptor 2 [2]) [nM] | EC50 (Cannabinoid receptor 2 [3]) [nM]
1 | CC(C)C[C@H]1C(=O)N2CCC[C@H]2[C@]2(O)O[C@](NC(=O)[C@@H]3C=C4c5cccc6[nH]c(Br)c(c56)C[C@H]4N(C)C3)(C(C)C)C(=O)N12 [BROMOCRIPTINE] | 26 |  | 
2 | C=C(C)[C@@H]1CCC(C)=C[C@H]1c1c(O)cc(CCCCC)cc1O [CANNABIDIOL] |  | 4580 | 104
